Values quoted from earlier work, collected in patent publication US9409893B2, “Heteroaryl derivatives and uses thereof” (Jacobus Pharmaceutical Company, Inc., priority 2012, dated 2016).

By UniProt entry, the sequences of proteins in these tests, tags left out. Where a name states a change or a piece, a line headed by the entry shows the natural chain unless it says otherwise.
UniProt Q12809: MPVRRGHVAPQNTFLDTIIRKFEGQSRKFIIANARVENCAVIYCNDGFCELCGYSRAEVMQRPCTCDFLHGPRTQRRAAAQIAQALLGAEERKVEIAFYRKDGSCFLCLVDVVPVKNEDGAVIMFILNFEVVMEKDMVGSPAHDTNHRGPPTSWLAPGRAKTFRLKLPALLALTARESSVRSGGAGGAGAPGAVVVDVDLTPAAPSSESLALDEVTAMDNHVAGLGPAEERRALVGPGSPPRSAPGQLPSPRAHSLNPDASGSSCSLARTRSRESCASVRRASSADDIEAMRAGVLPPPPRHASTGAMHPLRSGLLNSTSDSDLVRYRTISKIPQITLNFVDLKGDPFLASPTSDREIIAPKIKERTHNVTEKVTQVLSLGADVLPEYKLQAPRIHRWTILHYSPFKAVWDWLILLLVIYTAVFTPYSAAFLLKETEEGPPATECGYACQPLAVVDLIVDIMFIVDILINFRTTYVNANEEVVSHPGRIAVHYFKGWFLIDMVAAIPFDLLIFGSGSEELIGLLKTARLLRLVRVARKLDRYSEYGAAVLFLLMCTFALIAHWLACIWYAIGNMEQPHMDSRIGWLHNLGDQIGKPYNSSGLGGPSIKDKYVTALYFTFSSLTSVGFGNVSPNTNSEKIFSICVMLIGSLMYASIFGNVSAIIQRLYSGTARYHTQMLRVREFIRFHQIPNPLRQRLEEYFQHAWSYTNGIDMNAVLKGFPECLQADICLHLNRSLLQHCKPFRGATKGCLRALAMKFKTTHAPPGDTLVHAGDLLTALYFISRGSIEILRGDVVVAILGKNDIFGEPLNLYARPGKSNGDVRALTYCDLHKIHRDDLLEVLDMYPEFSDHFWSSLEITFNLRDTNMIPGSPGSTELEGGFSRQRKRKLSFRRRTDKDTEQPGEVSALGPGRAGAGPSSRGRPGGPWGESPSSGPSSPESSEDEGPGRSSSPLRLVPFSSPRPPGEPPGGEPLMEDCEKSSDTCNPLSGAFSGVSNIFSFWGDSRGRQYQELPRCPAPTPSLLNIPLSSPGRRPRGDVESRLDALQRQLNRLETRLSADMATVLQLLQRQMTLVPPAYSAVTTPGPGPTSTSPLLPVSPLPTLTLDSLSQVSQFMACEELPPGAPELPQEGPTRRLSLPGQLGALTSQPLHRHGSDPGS

Target: hERG potassium channel (Homo sapiens, UniProt Q12809)
Details: 90 nM, previous results (positive control rationale); cited from earlier work

For `COc1cc(N)c(Cl)cc1C(=O)NC1CCN(CCCOc2ccc(F)cc2)CC1OC` (stereo not shown) [Cisapride], the “Inhibition of hERG potassium current” value is listed as “approximately 80%”.
